Results on four compounds are retold here after publication PMC12575352.

In one series the test system is plasma proteins. The conditions noted are these: Observed, cited from earlier work.
Series [1] is described as follows: Reported clinical pharmacokinetics after intravenous sufentanil, alfentanil, remifentanil (literature). The conditions noted are these: for CL: humans, intravenous 2.4 μg/kg (170 μg), estimated as dose/AUC from literature data, ref Bower and Hull (1982).
For series [2] the following is noted: cited from earlier work; for CL: humans.
For series [3] the following is noted: Observed (experimental); ref PubChem; cited from earlier work.
The conditions of series [4]: humans, 0.1 mg, Observed; ref Lim et al., 2012; cited from earlier work.
For series [5] the following is noted: rats, 1.75 μg, Observed; ref YK. et al., 2024; cited from earlier work.
The mark [6] stands for this setting: 10 surgical patients, intravenous 5 μg/kg, ref Bovill et al., 1984.

Read-outs that look alike come from different tables or passages of the source. This is a selection: effects in other tests are not listed, and their absence says nothing.

Regarding `CCC(=O)N(c1ccccc1)C1(COC)CCN(CCn2nnn(CC)c2=O)CC1`, the Fup in the series with plasma proteins (alfentanil study, ref Bower and Hull (1982)) is on record as 12.75%. Besides, the CL in series [1] is 31.44 L/h; in series [1] (listed as alfentanil) it was “approximately 31.44 L/h”. Besides, the T1/2 in series [2] (Observed, healthy volunteers, intravenous 2.4 μg/kg (170 μg), ref Bower and Hull (1982)) is 72.6 min. Also, the logP in series [3] was 2.16.
As for `CCC(=O)N(c1ccccc1)C1(COC)CCN(CCc2cccs2)CC1`, the Fup with plasma proteins (sufentanil study, ref Bovill et al. (1984)) is 7.5%. For the same compound, in series [1] (calculated from literature Vdss with standard body weight of 70 kg, ref Bovill et al., 1984), the “absolute Vdss” value is 119 ± 14 L. In series [2] (setting [6]), the “mean half-life (T1/2)” value was 164 ± 22 min and the “mean steady-state volume of distribution (Vdss)” value is 1.7 ± 0.2 L/kg. The T1/2 in series [2] (Observed, humans (10 surgical patients), intravenous 5 μg/kg, ref Bovill et al. (1984), listed as sufentanil) is 164 ± 22.2 min. Besides, in series [2] (Observed, intravenous 5 μg/kg, 3F 7M, ref Bovill et al. (1984)), the CL was 54.01 L/h. In addition, the logP in series [3] was 3.95.
As for `CCC(=O)N(c1ccccc1)C1(C(=O)OC)CCN(CCC(=O)OC)CC1`, the CL in series [2] (Observed, intravenous 5 μg/kg, ref Westmoreland et al. (1993)) is 184.5 L/h. Moreover, the T1/2 is 14.4 min in series [2] (Observed, surgical patients, intravenous 5 μg/kg, ref Westmoreland et al. (1993), listed as remifentanil); 10.2 min in series [2] (surgical patients, intravenous 2 μg/kg, converted to hours, ref Westmoreland et al., 1993); 10.19 min in series [2] (surgical patients, intravenous 2 μg/kg, ref Westmoreland et al., 1993); 14.35 min in series [2] (surgical patients, intravenous 5 μg/kg, ref Westmoreland et al., 1993); 15.6 min in series [2] (surgical patients, intravenous 15 μg/kg, converted to hours, ref Westmoreland et al., 1993); 15.67 min in series [2] (surgical patients, intravenous 15 μg/kg, ref Westmoreland et al., 1993). Moreover, the T1/2 is 20.4 min in series [2] (surgical patients, intravenous 30 μg/kg, converted to hours, ref Westmoreland et al., 1993) and 20.47 min in series [2] (surgical patients, intravenous 30 μg/kg, ref Westmoreland et al., 1993). The logP in series [3] is 1.4.
In the case of `CCC(=O)N(c1ccccc1)C1CCN(CCc2ccccc2)CC1`, in series [4], the AUC0-inf was 1.5959 ng·h/mL and the AUC0-t is 1.5306 ng·h/mL. Moreover, in series [5], the AUC0-inf is listed as 3,552 pg·h/mL and the AUC0-t is 2,272 pg·h/mL.

Broadly, the logP is the decadic logarithm of the partition coefficient of the neutral form, usually between octanol and water.
